## Binding of CDR-mutated scFvs to a peptide of the spike HR2 region

Target peptide (SARS-CoV-2 spike, HR2 region): PDVDLGDISGINAS

Parent scFv Ab-14: VH joined to VL by the linker GGGGSGGGGSGGGGS. Changes lie in the light chain CDRs alone.
VH: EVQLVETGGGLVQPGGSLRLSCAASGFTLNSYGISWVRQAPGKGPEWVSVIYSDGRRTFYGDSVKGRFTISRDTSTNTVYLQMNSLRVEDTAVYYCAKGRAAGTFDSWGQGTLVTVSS
VL: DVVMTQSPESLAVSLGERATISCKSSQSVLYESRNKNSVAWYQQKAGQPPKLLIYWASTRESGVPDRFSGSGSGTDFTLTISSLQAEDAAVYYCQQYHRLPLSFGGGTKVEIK

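Phage display of a naive human antibody library on the peptide gave the parent. Variants in AAYL50 differ from the parent at up to three CDR positions; double and triple changes were sampled at random. AlphaSeq pools MATa yeast showing the antibodies with MATalpha yeast showing the peptide. After mating in shaken culture at 30 °C for 16 h, diploids were selected and their barcode pairs sequenced. Read counts were normalised to the haploid input and turned into Kd by a linear fit to BCL2-family pairs of known affinity, for each replicate. Mating was done three times.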

Each variant is given by its three light chain CDRs, as the data file delimits them; those of the parent are KSSQSVLYESRNKNSVA, WASTRES, QQYHRLPLS.
Values are log10 of the apparent Kd in nM; lower means stronger binding.
A mean of the replicates is given; it leaves out those without a signal.
An entry "nd" has no value in the source: the pair was not observed among the diploids in that replicate. This suggests poor binding but is not conclusive.
Parent in this assay: reference entry 0.65, copy in this library 1.68.

| CDR-L1 | CDR-L2 | CDR-L3 | replicates, log10 nM | log10 Kd (nM), mean | signal with controls |
|---|---|---|---|---|---|
| KSEQSVLKLSRNKNSVA | WASTRES | QQYHRLPLS | 1.69 1.61 2.18 | 1.83 | 1 of 9 (5.26) |
| KSSHSVLYESRNKNSMA | WASTRES | QQYHRLCLS | 1.10 1.36 1.22 | 1.23 | 1 of 9 (2.14) |
| KDSQSVLYESRNKNSYA | WAETRES | QQYHRLPLS | 1.99 2.01 2.87 | 2.29 | 2 of 9 (3.23) |
| KSSQSVLYESRNKNSVA | WASTRIS | QQYHRLEHS | nd 5.48 nd | 5.48 | 3 of 9 (4.33) |
| KSSQSVLYVSRNKNSVA | WASTRES | QQMHRLPLW | nd nd nd | nd | 0 of 9 |
| KSSQSVLYESRNKNSVN | WASTGED | QQYHRLPLS | nd nd nd | nd | 0 of 9 |
| KSSQSVLVESRNKNSVA | WASTRES | QQYHRLPLS | 0.43 0.04 0.64 | 0.37 | 0 of 9 |
| KSSQSVLYTSRNKNSVA | WASPREV | QQYHRLPLS | nd nd nd | nd | 0 of 9 |
| KSSQSVHYESRNLNSVA | WASTQES | QQYHRLPLS | 3.57 3.62 3.76 | 3.65 | 4 of 9 (4.51) |
| KSSQSVLYESRNKNGVA | WASTRES | QQYHRLGES | 0.21 0.44 0.38 | 0.35 | 2 of 9 (4.83) |
| KSSQSVLYESRNKNSVF | WASTQES | QQYHRLPLS | 5.04 nd nd | 5.04 | 2 of 9 (3.46) |
| KSSQSVLYESRNINIVA | WAGTRES | QQYHRLPLS | 3.90 5.69 5.03 | 4.87 | 3 of 9 (5.06) |
| KSSQPVLYESRNKNSVA | WISTRES | QQYHRLPLS | 3.33 3.09 3.34 | 3.25 | 4 of 9 (4.44) |
| KSSQSVLSESRNRNSVA | WQSTRES | QQYHRLPLS | 1.51 1.31 1.31 | 1.38 | 0 of 9 |
| KSSQSKLYHSRNDNSVA | WASTRES | QQYHRLPLS | 2.78 2.59 2.63 | 2.67 | 1 of 9 (5.10) |
| KSSASVLYESRNKNSVA | WNSTRES | QQYHRLPLS | 5.84 nd nd | 5.84 | 2 of 9 (3.93) |
| KSSQSVLYEDRNKNAVA | WASTRES | QQVHRLPLS | nd nd nd | nd | 0 of 9 |
| SSSQGVLYESMNKNSVA | WASTRES | QQYHRLPLS | 0.31 0.61 0.31 | 0.41 | 0 of 9 |
| KSSQSVLYESRNKNMVA | WASTRES | QQYHRLPWS | nd nd nd | nd | 0 of 9 |
| KQSQSVLYESRNKNSNA | AASTRES | QQYHRLPLS | 4.70 4.14 nd | 4.42 | 4 of 9 (3.96) |
| KSKQSVLYESRNKNSVA | WASTRAS | QQYHRLPFS | 0.91 0.99 1.21 | 1.04 | 1 of 9 (3.40) |
| KSSQSVLYESRNKNSVA | WASTRYS | QQYHRLYIS | nd nd nd | nd | 3 of 9 (4.81) |
| KSSQSVLYESRNKNSRA | WHSTRTS | QQYHRLPLS | 3.80 4.67 nd | 4.24 | 1 of 9 (3.62) |
| KSSQSVSYESRNKNSVA | WASTRHS | QQYHRLWLS | 1.88 2.00 2.30 | 2.06 | 2 of 9 (4.69) |
| KSSQSVLYESRNKNSVA | WASTKES | QQYHRLWLS | nd nd nd | nd | 0 of 9 |
| KSSQSVLYESRNKNWVA | WASTMES | DQYHRLPLS | nd nd nd | nd | 0 of 9 |
| KSSQSVLYEVRNKNSVP | WASTRES | QAYHRLPLS | nd nd nd | nd | 1 of 9 (3.17) |
| KWSQSVLYESRYKNSVA | WASTRES | QEYHRLPLS | 3.58 nd 4.71 | 4.15 | 4 of 9 (4.79) |
| KSSQSVLNESRNKNSVA | WASWRES | QFYHRLPLS | 1.88 1.89 2.04 | 1.94 | 2 of 9 (4.79) |
| KSSQSVLYESRNKPSVA | WANTRES | QQSHRLPLS | nd nd nd | nd | 0 of 9 |
| KSSQSALYESRNKTSQA | WASTRES | QQYHRLPLS | nd nd nd | nd | 0 of 9 |
| KSSQSVLYESRNSNLVN | WASTRES | QQYHRLPLS | nd nd nd | nd | 0 of 9 |
| KSSQSVLYWSRVKNSVA | WASTRES | QQYNRLPLS | 1.12 1.41 1.28 | 1.27 | 0 of 9 |
| KSSQSVRYESRNKNSVA | WASTRES | QCYHVLPLS | 1.96 1.70 2.30 | 1.99 | 1 of 9 (4.23) |
| KMSQSVMYESRNKNSVA | WASTRES | QQYCRLPLS | 0.06 0.43 0.33 | 0.27 | 5 of 9 (5.00) |
| KSVQSVLYESRNKNSVA | WASTRES | QQYFSLPLS | 0.60 0.96 0.88 | 0.81 | 1 of 9 (4.01) |
| KSSQSVLYESRNKNSVA | WASTRET | QQYHQLPLS | 1.34 1.41 1.41 | 1.38 | 1 of 9 (4.77) |

Top 3 of the variants detected in all replicates, tightest first:

| CDR-L1 | CDR-L2 | CDR-L3 | replicates, log10 nM | log10 Kd (nM), mean | signal with controls |
|---|---|---|---|---|---|
| KMSQSVMYESRNKNSVA | WASTRES | QQYCRLPLS | 0.06 0.43 0.33 | 0.27 | 5 of 9 (5.00) |
| KSSQSVLYESRNKNGVA | WASTRES | QQYHRLGES | 0.21 0.44 0.38 | 0.35 | 2 of 9 (4.83) |
| KSSQSVLVESRNKNSVA | WASTRES | QQYHRLPLS | 0.43 0.04 0.64 | 0.37 | 0 of 9 |

Nonspecific signal, from three strains lacking the peptide, appeared in 18% of pairings of library AAYL50, centred on 4.19 (5% of these signals below 2.99); values are not corrected for it. Also given: how often the same scFv was detected with the empty control strains, with their mean in brackets.

Source: Engelhart et al. 2022 (doi:10.1038/s41597-022-01779-4), MIT Lincoln Laboratory and A-Alpha Bio; data file from the FLAb repository.